Tests used:
Dopamine D1 = molecular target: T1, Dopamine D1 (Homo sapiens, UniProt P21728); test: Radioligand binding inhibition, Dopamine D1; details: 10 µM; radioligand [^3H]SCH23390; mean of duplicate
T1 construct: Sekisui Medical (contract laboratory)
Protocol: (§1) Interaction of MMP with 28 binding sites was examined, including major classes of neurotransmitter receptor, uptake system, and ion channels (Sekisui Medical, Naka, Japan). MMP was tested in all assays at 10 µM. […] 10.2.3 (GraphPad Software, San Diego, CA). Each determination was made in duplicate.
(§2) Test substance concentration : 10 µM, positive substance concentration : 10 µM
(§3) Data are expressed as the mean values of duplicate samples.
(§4) The % inhibition was calculated from “100 – binding ratio”.
(§5) Binding ratio: [(B - N) / (B0 - N)] × 100 (%)
(§6) B: Bound radioactivity in the presence of test substance and positive substance (individual value)
(§7) B0: Total bound radioactivity in the absence of test substance and positive substance (mean value)
(§8) N: Non-specific bound radioactivity (mean value)

Chains of the proteins cited; added tags and fusions are not shown.
UniProt P21728, whole entry: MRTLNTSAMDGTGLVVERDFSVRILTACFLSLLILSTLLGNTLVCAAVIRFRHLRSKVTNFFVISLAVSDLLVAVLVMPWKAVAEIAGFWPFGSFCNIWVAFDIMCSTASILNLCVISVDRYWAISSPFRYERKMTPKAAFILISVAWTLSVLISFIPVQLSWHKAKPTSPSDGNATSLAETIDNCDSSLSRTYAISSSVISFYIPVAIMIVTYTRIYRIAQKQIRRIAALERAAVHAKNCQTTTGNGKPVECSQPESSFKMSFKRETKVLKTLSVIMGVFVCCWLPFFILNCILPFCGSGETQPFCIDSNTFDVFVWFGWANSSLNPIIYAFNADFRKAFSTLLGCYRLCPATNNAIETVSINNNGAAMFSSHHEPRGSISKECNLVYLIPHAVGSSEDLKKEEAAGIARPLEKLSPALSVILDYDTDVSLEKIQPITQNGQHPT
UniProt P30542, whole entry: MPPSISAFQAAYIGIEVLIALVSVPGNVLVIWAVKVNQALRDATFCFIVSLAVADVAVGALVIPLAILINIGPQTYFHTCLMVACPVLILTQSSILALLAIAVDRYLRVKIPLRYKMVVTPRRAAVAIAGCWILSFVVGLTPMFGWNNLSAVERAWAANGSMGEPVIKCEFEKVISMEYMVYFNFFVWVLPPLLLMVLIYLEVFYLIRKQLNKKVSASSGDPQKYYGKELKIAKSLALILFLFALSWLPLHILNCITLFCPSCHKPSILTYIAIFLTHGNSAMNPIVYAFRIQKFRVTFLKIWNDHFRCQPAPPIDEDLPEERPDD

Adenosine A1 = molecular target: T2, Adenosine A1 (Homo sapiens, UniProt P30542); test: Radioligand binding inhibition, Adenosine A1; details: 10 µM; radioligand [^3H]DPCPX; mean of duplicate
T2 construct: Sekisui Medical (contract laboratory)
Protocol: as §1, §2, §3, §4, §5, §6, §7, §8

CN1CCc2cc(Cl)c(O)cc2[C@@H](c2ccccc2)C1 [R(+)-SCH-23390, reference compound]
Inhibition ratio (%) (Dopamine D1): 98.17%

CCCn1c(=O)c2[nH]c(C3CCCC3)nc2n(CCC)c1=O [DPCPX, reference compound]
Inhibition ratio (%) (Adenosine A1): 98.97%

Reference: PMC11266321 (EJNMMI Radiopharmacy and Chemistry, 2024)
